This assay has as its system A. baumannii DMC1. Nature of the assay: Mouse wound model, viable bacteria at burn sites 24 hours after burn. Conditions: C57BL/6 mice, apyrase 1 U/ml, colistin 4 μg/ml.

Turning to apyrase, the “reduction in viable bacteria number compared to control and colistin groups” value is approximately 1 log.

(Values after patent US20150273025A1, “APYRASE TREATMENTS” (THE REGENTS OF THE UNIVERSITY OF MICHIGAN, priority 2012, published 2015).)
